Patent publication US8093393B2, “Cationic ceramides, and analogs thereof, and their use for preventing or treating cancer” (MUSC Foundation for Research Development, priority 2004, dated 2012)
Where two headings read alike, the source gives them in different places.

Columns and labels:
[1] = aqueous conditions at pH 4.5, 7.5 and 8.5 over 48 hrs
[2] = system: isolated rat liver mitochondria; assay: Accumulation / binding in isolated mitochondria
Method: FIG. 16. […] Bar 2 and 4 (+FCCP), ΔΨ was dissipated by addition of FCCP at 1 μM plus antimycin A at 0.5 μg/mg protein from the beginning of the experiment. Results are expressed as mean+SEM of n=3, *p=0.01 versus control.
FIG. 23. […] Trace 3 was corrected for the absorbance of TMRM.
Preparation of mitochondria from rat liver.
Mitochondrial incubation medium.
Analysis of ceramides by mass spectroscopy (MS).

MCF7 cells = conditions: 5 μM

D-erythro-2-N-[6′-(1″-Pyridinium)-hexanoyl]-sphingosine Bromide [LCL29]
Stability (decomposition) by MS [1]: no evidence of their decomposition
suppression of accumulation by dissipation of ΔΨ (antimycin plus FCCP) ([2]; 10 μM): 66.8%
ΔΨ-dependent uptake ([2]; 10 μM): 6.28 nmol/mg protein
association with mitochondria ([2]; 10 μM, energized mitochondria): 95%
binding to mitochondria ([2]; 30 μM, at 4 min): 5±0.8 nmol/mg protein
concentration in the matrix space ([2]; calculated with matrix volume 1.6 μl/mg protein): 3900 µM
Cellular level, % of concentration applied (MCF7 cells; 5 h): ~17%
Cellular level, % of concentration applied (MCF7 cells; 24 h): 32%
